Assay results as given in US20070190129A1, “Sustained release dosage forms of ziprasidone” (Pfizer Inc., priority 2003, published 2007).

Assay: Aqueous solubility of ziprasidone salt forms
Text: To achieve efficacious blood levels over long periods of time, the sustained release dosage form should release ziprasidone to the gastrointestinal tract in a manner that allows ziprasidone to be absorbed for a sustained length of time. However, formulating ziprasidone into a sustained release dosage form presents a number of problems. […] Such low solubility at intestinal pH inhibits absorption of ziprasidone in the intestines.
In one embodiment, the solubility-improved form of ziprasidone is a high solubility salt form. It is known that some low-solubility drugs may be formulated in highly soluble salt forms that provide temporary improvements in the concentration of the drug in a use environment relative to another salt form of the drug.

Succinate
pH of Saturated Solution: 3.4
